From patent US20130347134A1, “TRANSGENIC VON WILLEBRAND FACTOR ANIMALS AND USES THEREOF” (priority 2012, published 2013)

System: human platelets
Test: Tail bleeding assay, human platelet-induced hemostasis in homozygous VWF^1326R>H mice
Format: in vivo, mouse
Details: drug given to homozygous VWF^1326R>H mice receiving human platelets
Experimental: Tail bleeding assay. […] For studies involving PLAVIX, animals received a 50 mg/kg oral dose of the drug the day before and 2 hours prior to the administration of human platelets.
This assay provides an indirect measure of the ability of platelets and VWF to support hemostasis by interacting with the injured vessel wall. It also indirectly determines the function of multiple receptors and ligands on platelets that are required to form a hemostatic plug. […] It is performed by immersing the severed tip (10 mm) of the animal's tail in isotonic saline at 37° C. and monitoring the length of time required for bleeding to cease. Homozygous mutant mice will be infused with an equal volume of either saline or purified human platelets. Platelet specific antibodies or drugs will be administered as described above and their ability to prolong bleeding time evaluated.

COC(=O)[C@H](c1ccccc1Cl)N1CCc2sccc2C1 [clopidogrel]
human platelet-induced hemostatic clot formation: completely disrupted
human platelet-induced hemostatic clot formation (listed as Clopidogrel): unable to produce a hemostatic clot
